Measured values reported in ChEMBL document CHEMBL1129978, “Effect of structural modification of enol-carboxamide-type nonsteroidal antiinflammatory drugs on COX-2/COX-1 selectivity” (J Med Chem, 1997).

By UniProt entry, the sequences of proteins in these tests, tags left out.
UniProt P23219, whole entry: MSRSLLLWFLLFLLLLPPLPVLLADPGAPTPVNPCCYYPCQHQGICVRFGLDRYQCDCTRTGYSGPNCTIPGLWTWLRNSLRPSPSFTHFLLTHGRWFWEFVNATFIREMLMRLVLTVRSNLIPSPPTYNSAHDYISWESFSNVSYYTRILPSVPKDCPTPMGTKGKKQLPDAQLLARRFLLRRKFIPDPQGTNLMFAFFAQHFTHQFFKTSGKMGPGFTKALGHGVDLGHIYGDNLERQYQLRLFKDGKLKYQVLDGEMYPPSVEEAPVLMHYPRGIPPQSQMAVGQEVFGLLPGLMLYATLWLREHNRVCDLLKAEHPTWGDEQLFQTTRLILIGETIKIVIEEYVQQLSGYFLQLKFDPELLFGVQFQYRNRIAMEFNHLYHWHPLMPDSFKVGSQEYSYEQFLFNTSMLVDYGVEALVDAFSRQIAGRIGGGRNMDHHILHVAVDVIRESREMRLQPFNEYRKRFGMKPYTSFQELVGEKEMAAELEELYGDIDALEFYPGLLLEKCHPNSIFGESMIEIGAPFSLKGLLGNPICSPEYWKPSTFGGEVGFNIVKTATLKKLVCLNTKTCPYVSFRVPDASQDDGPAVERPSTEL

Biological target: Prostaglandin G/H synthase 1 (Homo sapiens, UniProt P23219)
Experiment: Concentration of drug that causes a 50% decrease in the maximal inhibition of Prostaglandin G/H synthase 1 activity as measured by PGE-2 production (''++'' indicates 80-90% inhibition)

IC50: 1.3 µM
SMILES: CN1C(C(=O)Nc2ccccn2)=C(O)c2ccccc2S1(=O)=O [PIROXICAM]
